# Antibody variant affinities, Ab-14 heavy chain, assay B

Target peptide (SARS-CoV-2 spike, HR2 region): PDVDLGDISGINAS

Each scFv is VH, a 15-residue (Gly4Ser)3 linker, VL, as in the parent Ab-14, and differs from it in the CDRs of the heavy chain only.
VH: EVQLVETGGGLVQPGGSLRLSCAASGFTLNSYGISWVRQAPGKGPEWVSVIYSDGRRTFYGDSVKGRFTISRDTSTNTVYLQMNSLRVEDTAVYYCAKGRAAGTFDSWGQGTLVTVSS
VL: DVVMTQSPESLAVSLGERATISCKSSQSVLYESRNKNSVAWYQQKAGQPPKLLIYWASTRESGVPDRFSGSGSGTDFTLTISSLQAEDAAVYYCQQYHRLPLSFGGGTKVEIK

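The parent was found by panning a naive human phage display library on the peptide. Designed CDR sequences, proposed from the first random library and measured here. Group labels follow the data file (Ctrl: baseline library sampled from a position-specific scoring matrix, with some repeated check sequences; Rand: our label for a block that the file lists under HC and that is probably the random mutants of the ten best first-round binders; GP: Gaussian process model; GPLM: also part of the Gaussian process libraries; HC: hill climbing; Gen: genetic algorithm; Gibbs: Gibbs sampling; a sequence that several methods proposed may carry one label only). In AlphaSeq, yeast of one mating type display the scFv and yeast of the other type display the target. The frequency of each diploid, read from paired DNA barcodes, reflects how well the two displayed proteins bind. Scores were corrected for input abundance and mapped to Kd with protein pairs of known affinity run in the same pool. The assay was run in six technical replicates.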

The whole VH of each variant is written out. Variants here have at most six changes. Numbers give log10(Kd / nM), so 0 is 1 nM and 3 is 1 µM. Smaller is tighter. A mean of the replicates is given; it leaves out those without a signal. Where no diploid with the target was found in any replicate, the entry reads "no signal": below detection, most likely a poor binder, though not proof of it. The authors averaged sequences with at least three values out of six and counted those with two or fewer as poor binders. The range of this assay differs from that of the first round, and the authors advise against merging the two. As a blank, each scFv also met three strains without target: over all heavy chain designs, 1% of these pairings were detected, typically at 2.08 and seldom below 0.84. Of ten entries with the parent sequence, four were seen in most replicates (averages 0.34 to 2.37), three in one and three in none, so single entries are noisy.

* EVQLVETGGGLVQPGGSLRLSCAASGFTLNSYGISWVRQAPGKGPEWVSVIYSDGRRTFYGDSVKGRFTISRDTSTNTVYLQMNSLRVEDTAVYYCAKGRAAGVFESWGQGTLVTVSS [Ctrl] -> 0.64 (6 of 6 replicates)
* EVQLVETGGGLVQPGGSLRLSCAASKFTLNSYGISWVRQAPGKGPEWVSVIYSDGKRTFYSDSVKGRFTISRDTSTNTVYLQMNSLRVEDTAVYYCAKGRTAGTFDSWGQGTLVTVSS [GP_Gibbs] -> 0.44 (6 of 6 replicates)
* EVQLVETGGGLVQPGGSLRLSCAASGFTLNEYGISWVRQAPGKGPEWVSVIYSDGRRTFYGDSVKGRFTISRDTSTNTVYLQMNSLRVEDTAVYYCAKGRAAWTFDSWGQGTLVTVSS [Ctrl] -> no signal (0 of 6 replicates)
* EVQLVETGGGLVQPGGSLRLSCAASGFELNSYGISWVRQAPGKGPEWVSVIYSDGRRTFYGDRVKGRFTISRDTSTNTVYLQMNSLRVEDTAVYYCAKGKTAGTFDSWGQGTLVTVSS [GP_Gen] -> 2.04 (1 of 6 replicates)
* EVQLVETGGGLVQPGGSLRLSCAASGFHLNSYGISWVRQAPGKGPEWVSVIYSDGRRTFYGDSVRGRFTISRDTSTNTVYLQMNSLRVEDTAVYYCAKGRNAGTFDVWGQGTLVTVSS [Ctrl] -> 1.18 (3 of 6 replicates)
* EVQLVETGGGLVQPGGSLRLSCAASGFTLNEYGISWVRQAPGKGPEWVSVIYSDGRRTFYSDAVKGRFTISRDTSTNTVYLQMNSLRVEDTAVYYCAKGKCAGTFDSWGQGTLVTVSS [GP_HC] -> no signal (0 of 6 replicates)
* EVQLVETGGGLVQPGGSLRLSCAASGFTLNSYGISWVRQAPGKGPEWVSVIYADGRRTFYGDSVKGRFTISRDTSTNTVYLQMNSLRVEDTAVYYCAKGRDAGTFDSWGQGTLVTVSS [Ctrl] -> -0.24 (6 of 6 replicates)
* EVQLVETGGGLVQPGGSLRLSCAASGFNLNSYGISWVRQAPGKGPEWVSVIYSDGRRTFYIDSVKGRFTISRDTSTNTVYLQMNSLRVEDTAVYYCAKGRNAGTFDSWGQGTLVTVSS [GP_Gen] -> 1.54 (5 of 6 replicates)
* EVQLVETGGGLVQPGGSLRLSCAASGFTLNEYGISWVRQAPGKGPEWVSVRYSDGRRTFYGDSVKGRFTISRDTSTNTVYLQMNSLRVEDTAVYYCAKGFASVTFDQWGQGTLVTVSS [Rand] -> no signal (0 of 6 replicates)
* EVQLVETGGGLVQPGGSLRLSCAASGFSLNSYGISWVRQAPGKGPEWVSVIYSDGRRTFYGDNVKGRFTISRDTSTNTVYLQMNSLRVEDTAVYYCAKGRQAGTFDSWGQGTLVTVSS [GP_Gen] -> no signal (0 of 6 replicates)
* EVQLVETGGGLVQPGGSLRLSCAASGFTLNDYGISWVRQAPGKGPEWVSVIYSDGRRTFYGDSVKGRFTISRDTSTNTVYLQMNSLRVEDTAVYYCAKNRHADTFDSWGQGTLVTVSS [Ctrl] -> 2.15 (1 of 6 replicates)
* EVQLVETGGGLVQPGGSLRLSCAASGFTLNSYGISWVRQAPGKGPEWVSVIYADGRRTFYGDSVKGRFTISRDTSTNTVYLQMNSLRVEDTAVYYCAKCRAAGTFDSWGQGTLVTVSS [Ctrl] -> 1.32 (1 of 6 replicates)
* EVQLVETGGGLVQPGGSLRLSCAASGFELNKYGISWVRQAPGKGPEWVSVIYSDGRRTFYGDSVKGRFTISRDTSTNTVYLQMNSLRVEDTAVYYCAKGQAAGTFDSWGQGTLVTVSS [GPLM_Gen] -> 0.80 (6 of 6 replicates)
* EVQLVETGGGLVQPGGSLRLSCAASGFQLNDYGISWVRQAPGKGPEWVSVIYSDGRRTFYGDSVKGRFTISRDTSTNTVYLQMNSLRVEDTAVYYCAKGKAAGTFDSWGQGTLVTVSS [GP_HC] -> 0.75 (6 of 6 replicates)
* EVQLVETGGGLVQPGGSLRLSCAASGFTLVSYGISWVRQAPGKGPEWVSVIYSDGRRTFYDDSVKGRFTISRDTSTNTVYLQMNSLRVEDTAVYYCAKGKLAGNFDSWGQGTLVTVSS [Rand] -> no signal (0 of 6 replicates)
* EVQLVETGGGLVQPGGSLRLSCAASGFELESYGISWVRQAPGKGPEWVSVIYSDGRRTFYGDSVKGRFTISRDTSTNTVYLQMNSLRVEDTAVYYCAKGKAAGTFDSWGQGTLVTVSS [GP_Gibbs] -> 1.17 (6 of 6 replicates)
* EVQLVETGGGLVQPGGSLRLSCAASGFNLNSYGISWVRQAPGKGPEWVSVIYSDGRRTFYLDSVKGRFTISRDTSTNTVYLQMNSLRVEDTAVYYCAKGRAAGTGDLWGQGTLVTVSS [Ctrl] -> no signal (0 of 6 replicates)
* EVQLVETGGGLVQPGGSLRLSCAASGFTLDSYGISWVRQAPGKGPEWVSVKYSDGRRTFRGDSVKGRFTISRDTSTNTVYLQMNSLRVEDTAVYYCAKGRAAGTALSWGQGTLVTVSS [Rand] -> 1.30 (1 of 6 replicates)

The last 2 entries again:

| VH | group | log10 Kd (nM), mean | replicates with signal |
|---|---|---|---|
| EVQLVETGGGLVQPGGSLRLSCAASGFNLNSYGISWVRQAPGKGPEWVSVIYSDGRRTFYLDSVKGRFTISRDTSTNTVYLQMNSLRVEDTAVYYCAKGRAAGTGDLWGQGTLVTVSS | Ctrl | no signal | 0 of 6 |
| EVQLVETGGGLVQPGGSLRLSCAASGFTLDSYGISWVRQAPGKGPEWVSVKYSDGRRTFRGDSVKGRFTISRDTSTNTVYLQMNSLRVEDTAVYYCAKGRAAGTALSWGQGTLVTVSS | Rand | 1.30 | 1 of 6 |

Values reported by Li et al. 2023, doi:10.1038/s41467-023-39022-2 (FLAb copy).